The subject of the assay is paraplegic mice (lumbar spinal cord circuitry for hindlimb locomotion). As to the kind of experiment: Hindlimb movement generation (LM/NLM) on a motor-driven treadmill in complete spinal cord transected mice. The note with it: mouse, in vivo.

On to `CCCN1CCC[C@@H]2Cc3n[nH]cc3C[C@H]21` [Quinpirole], for which the “induction of LM” value is recorded as “did not induce LM”.

For the origin of these results see patent publication US8012481B2, “Composition and method for inducing or restoring locomotor functions in an animal” (Universite Laval, priority 2004, dated 2011).
